USRE39616E1, “Aminoindan derivatives” (priority 1996, dated 2007)

Chains of the proteins cited; added tags and fusions are not shown.
UniProt P19643, whole entry: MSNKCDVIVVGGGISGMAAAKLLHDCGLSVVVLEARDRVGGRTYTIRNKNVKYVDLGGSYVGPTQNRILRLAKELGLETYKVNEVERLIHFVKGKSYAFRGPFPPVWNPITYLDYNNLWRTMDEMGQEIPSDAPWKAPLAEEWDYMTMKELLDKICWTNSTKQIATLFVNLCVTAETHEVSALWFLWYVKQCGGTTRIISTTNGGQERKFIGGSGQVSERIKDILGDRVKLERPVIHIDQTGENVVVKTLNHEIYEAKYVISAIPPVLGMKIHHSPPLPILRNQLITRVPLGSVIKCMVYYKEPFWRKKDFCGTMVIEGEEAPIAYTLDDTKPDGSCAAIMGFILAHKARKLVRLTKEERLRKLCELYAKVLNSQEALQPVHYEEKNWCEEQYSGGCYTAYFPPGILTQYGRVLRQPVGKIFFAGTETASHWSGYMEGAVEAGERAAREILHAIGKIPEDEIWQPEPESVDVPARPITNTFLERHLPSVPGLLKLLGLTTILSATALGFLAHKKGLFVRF
UniProt P21396, whole entry: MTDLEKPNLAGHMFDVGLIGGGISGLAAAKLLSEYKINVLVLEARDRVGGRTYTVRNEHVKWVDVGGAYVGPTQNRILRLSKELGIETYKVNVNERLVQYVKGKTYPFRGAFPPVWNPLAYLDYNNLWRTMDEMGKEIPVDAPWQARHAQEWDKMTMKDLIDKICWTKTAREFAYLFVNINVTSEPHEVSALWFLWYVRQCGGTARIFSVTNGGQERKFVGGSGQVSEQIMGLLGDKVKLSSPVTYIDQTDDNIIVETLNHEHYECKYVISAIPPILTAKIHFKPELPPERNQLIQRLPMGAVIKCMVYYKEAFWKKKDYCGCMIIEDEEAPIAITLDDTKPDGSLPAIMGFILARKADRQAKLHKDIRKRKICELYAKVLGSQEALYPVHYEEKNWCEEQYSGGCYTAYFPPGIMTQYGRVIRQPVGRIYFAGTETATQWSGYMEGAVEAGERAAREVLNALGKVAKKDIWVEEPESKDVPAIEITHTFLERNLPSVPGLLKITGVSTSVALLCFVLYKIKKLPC

How the values were obtained:
MAO-B = MAO-B (Rattus norvegicus, UniProt P19643); assay: Inhibition of MAO activity in vitro, PEA as substrate; assay type: biochemical; set-up: The MAO enzyme source was a homogenate of rat brain in 0.3M sucrose; from tissue; host or cells: rat brain homogenate, 600 g supernatant; conditions: MAO-B Inhibition In vitro IC50, rat brain homogenate
Method: (§1) Substrate concentrations used were 50 μM (PEA) and 1 mM (5-HT).

MAO-A = MAO-A (Rattus norvegicus, UniProt P21396); assay: Inhibition of MAO activity in vitro, 5-HT as substrate; assay type: biochemical; set-up: The MAO enzyme source was a homogenate of rat brain in 0.3M sucrose; from tissue; host or cells: rat brain homogenate, 600 g supernatant; conditions: MAO-A Inhibition In vitro IC50, rat brain homogenate, 5-HT substrate
Method: as §1

CCCN(C)C(=O)Oc1ccc2c(c1)C(N)CC2 (stereo not drawn) [Compound 2]
IC50 (MAO-B): > 1000 µM

CNC1CCc2ccc(OC(=O)N(C)C)cc21 (stereo not drawn) [Compound 8]
IC50 (MAO-B): > 1000 µM

CCN(C)C(=O)Oc1ccc2c(c1)C(NC)CC2 (stereo not drawn) [Compound 10]
IC50 (MAO-B): > 1000 µM

CN(C)C(=O)Oc1ccc2c(c1)C(N(C)C)CC2 (stereo not drawn) [Compound 12]
IC50 (MAO-A): 130 µM | IC50 (MAO-B): > 1000 µM

C#CCNC1CCc2cccc(OC(=O)N(C)CC)c21 (stereo not drawn) [Compound 33]
IC50 (MAO-B): > 1000 µM
